Screens deposited in PubChem by ICCB-Longwood Screening Facility, Harvard Medical School.
GIV Gai3 FP: inhibitors of GIV GBA-motif binding to rat Galpha-i3; P08753; Galpha-i3/FITC-GIV peptide fluorescence polarization, 90 min; hits give low values; scaled: aluminum fluoride 0%, vehicle 100%; percent of control (FP), % (no concentration beside the values); hit rate 0.42% among 210,000; AID 1224905;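 active = replicate mean at 85% of control or lower, very high polarization wells dropped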;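 note: wells of about 15 µL received 100 nL stock; the first replicate is given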
GIV Gai FP conf: inhibitors of GIV peptide binding to Galpha-i3, confirmation, biochemical, fluorescence polarization, FITC-GIV peptide, rat Galphai3; shares compounds with GIV Gai3 FP; fluorescence polarization, mP at 100 µM; active compounds read low; 38% of 580 active;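 active = inhibition score of 15 or more, meaning 100 minus mean polarization as percent of control over three replicates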;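 note: lower mP means peptide displaced from Galphai3 so more inhibition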
GIV-Gai AS conf: inhibitors of GIV binding to Galpha-i3, confirmation, orthogonal assay for GIV-Galpha-i inhibitor project, biochemical, AlphaScreen, His-GIV, GST-Galphai3; shares compounds with GIV Gai3 FP; purified proteins, 90 min; active compounds read low; AlphaScreen counts at 100 µM; 39% of 580 active;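 active = inhibition score at or above a set limit, where the score is 100 minus the three-replicate mean percent of control signal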
* marks the source's active call; other numbers are inactive results. The full list was thinned out, with hits kept by preference.

SMILES | GIV Gai3 FP | others
Cc1ccc(COc2ccc(C(c3c(C)[nH]n(-c4ccccc4)c3=O)c3c(C)[nH]n(-c4ccccc4)c3=O)cc2)cc1 | 114.5
CCCCCCOc1ccc(C(c2c(C)[nH]n(-c3ccccc3)c2=O)c2c(C)[nH]n(-c3ccccc3)c2=O)cc1 | 62.3* | GIV Gai FP conf=66.9;GIV-Gai AS conf=11116*
Cc1[nH]n(-c2ccccc2)c(=O)c1C(c1ccc(C#N)cc1)c1c(C)[nH]n(-c2ccccc2)c1=O | 71.1* | GIV Gai FP conf=66;GIV-Gai AS conf=33414
Cc1[nH]n(-c2ccccc2)c(=O)c1C(c1cc(Br)ccc1O)c1c(C)[nH]n(-c2ccccc2)c1=O | 105.8
Cc1cc(C)cc(N2C(=O)CC(c3ccc4c(c3)OCO4)C3=C2CCCC3=O)c1 (configuration not stated) | 106.1
COC(=O)c1c(NC(=S)N(C)Cc2c(C)nn(C)c2C)sc2c1CCC2 | 104.9
c1cc(N2CCCC2)ccc1-c1noc(C2CCCC2)n1 | 104.5
Cc1nnc(-c2ccc(S(=O)(=O)N3CCCC3)o2)o1 | 103.7
CCc1cc(C2CCCN2S(=O)(=O)Cc2ccccc2)on1 (configuration not stated) | 104.3
COc1ccc(C)cc1NC(=O)Cn1cnc2c(nc3n2CCCCC3)c1=O | 108.3
CC1(C)OC2OC(COC(=O)COc3ccc(Cl)cc3Cl)C3OC(C)(C)OC3C2O1 (configuration not stated) | 107.9
CC1(C)CC(=O)C2=C(C1)Nc1ccccc1S2 | 77.7* | GIV Gai FP conf=69.6;GIV-Gai AS conf=61627
CC1(C)CC(=O)C2=C(C1)Nc1ccccc1NC2c1ccccc1F (configuration not stated) | 102.8
CC1(C)CC(=O)C2=C(C1)NC1=C(C(=O)CC(C)(C)C1)C2c1ccccc1 | 103.4
CCC(SC1=Nc2ccccc2C2=NC(C)C(=O)N12)C(=O)Nc1cc(F)ccc1F (configuration not stated) | 106.1
Cc1cc(C)nc(NC(=O)c2cccc(S(=O)(=O)N3CCOCC3)c2)n1 | 111.2
COC(=O)c1ccc(NC(=O)c2nn(C)c3c2CS(=O)(=O)c2ccccc2-3)cc1 | 86.0 | GIV Gai FP conf=83.2;GIV-Gai AS conf=37898
COc1ccc(NC(=O)c2nn(C)c3c2CS(=O)(=O)c2ccccc2-3)cc1Cl | 96.1
Cn1nc(C(=O)Nc2ccc(F)cc2)c2c1-c1ccccc1S(=O)(=O)C2 | 103.8
CCN(CC)c1cc(Nc2ccccc2OC)c([N+](=O)[O-])c2nonc12 | 110.6

Next part; it opens with the five that closed the last part.
SMILES | GIV Gai3 FP | others
Cc1cc(C)nc(NC(=O)c2cccc(S(=O)(=O)N3CCOCC3)c2)n1 | 111.2
COC(=O)c1ccc(NC(=O)c2nn(C)c3c2CS(=O)(=O)c2ccccc2-3)cc1 | 86.0 | GIV Gai FP conf=83.2;GIV-Gai AS conf=37898
COc1ccc(NC(=O)c2nn(C)c3c2CS(=O)(=O)c2ccccc2-3)cc1Cl | 96.1
Cn1nc(C(=O)Nc2ccc(F)cc2)c2c1-c1ccccc1S(=O)(=O)C2 | 103.8
CCN(CC)c1cc(Nc2ccccc2OC)c([N+](=O)[O-])c2nonc12 | 110.6
Oc1ccc(Br)c(C2Nc3ccc(F)cc3[C@H]3OCC[C@@H]23)c1 (some centres not stated) | 99.1
Cc1nc2cc(-c3noc(-c4ccc5c(c4)OCO5)n3)ccc2o1 | 98.8
CCOc1ccc(-c2nonc2NC(=O)C(C)Oc2ccc(Cl)c(C)c2)cc1C (configuration not stated) | 102.8
CCOc1ccc(-c2nonc2NC(=O)C(C)Oc2ccc(CC)cc2)cc1C (configuration not stated) | 104.6
CCOc1ccc(-c2nonc2NC(=O)C(C)Oc2ccc(F)cc2)cc1C (configuration not stated) | 84.2* | GIV Gai FP conf=65.8;GIV-Gai AS conf=40925
CCSc1nnc(CCNC(=O)C2CCCC2)n1C | 101.6
O=C(O)CCCC(=O)Nc1nc2n(n1)C(c1ccc(Cl)cc1)C=C(c1ccc(Cl)cc1)N2 (configuration not stated) | 104.0
O=S(=O)(Nc1nc2n(n1)C(c1ccc(Cl)cc1)C=C(c1ccccc1)N2)c1ccc(Cl)cc1 (configuration not stated) | 116.2
O=C(O)CCC(=O)Nc1nc2n(n1)C(c1ccc(Cl)cc1)C=C(c1ccccc1)N2 (configuration not stated) | 62.8* | GIV Gai FP conf=44.3*;GIV-Gai AS conf=2477*
Cc1ccc(C(=O)O)cc1-n1c(C)ccc1-c1ccccc1 | 102.9
Cc1ccc(C(=O)O)cc1-n1c(C)ccc1C | 66.8* | GIV Gai FP conf=53.9*;GIV-Gai AS conf=3689*
Cc1ccc(C)n1-c1ccsc1C(=O)CC#N | 97.0
Cc1ccc(C)n1-c1ccc(C(=O)O)cc1O | 30.7* | GIV Gai FP conf=50.5*;GIV-Gai AS conf=3903*
CC(=O)Nc1ccsc1C(=O)O | 105.2
Cc1cc(C)n(-c2cc(C(=O)O)ccc2C)n1 | 100.1
Cc1cc(C(=O)O)ccc1-n1c(C)ccc1C | 96.8
Cc1ccc(C)n1-c1ccsc1C(=O)O | 65.2* | GIV Gai FP conf=11.1*;GIV-Gai AS conf=1766*
CCc1c(C)[nH]c2ccc(C(=O)O)cc12 | 105.3
CCC(=O)Nc1ccc(-c2cc(C(=O)NCc3ccccn3)c3ccccc3n2)cc1 | 107.7
NS(=O)(=O)c1ccc(CCNCc2ccc(-c3ccc(Br)cc3)o2)cc1 | 106.9
